# Literature values in article PMC3845828 (Clinical cancer research : an official journal of the …, 2012).
# Assays:
# [1] = administration of sRAGE; ref [11], [12]
# amyloid-β = settings: administration of sRAGE; ref [13]
substance,measurement,setting,value
sRAGE: truncated form of RAGE; synthetic version of a naturally occurring secreted receptor form that sequesters RAGE ligands,growth of tumor cells in animal studies,"tumor cells; administration of sRAGE, ref [6]",suppress the growth of tumor cells
same,C6-glioma tumors,tumor cells; previously shown,reduced C6-glioma tumors
same,tumor growth and metastasis in a murine model of lung cancer,"tumor cells; treatments with sRAGE, ref [8]",suppresses tumor growth and metastasis
same,outcomes in diabetes,[1],improve outcomes in diabetes
same,transport of amyloid-β across the blood-brain barrier,amyloid-β,block the transport of amyloid-β across the blood-brain barrier
